Literature values in patent publication US7378418B2, “Azabicyclic heterocycles as cannabinoid receptor modulators” (Bristol-Myers Squibb Company, priority 2003, dated 2008).

Conditions: chronic administration for two weeks (Hildebrandt et al. 2003)

## Cc1c(C(=O)NN2CCCCC2)nn(-c2ccc(Cl)cc2Cl)c1-c1ccc(I)cc1 [AM-251]
  adipose tissue mass: decreased adipose tissue mass
